Test results reported in ChEMBL document CHEMBL5375987, “Structural Fusion of Natural and Synthetic Ligand Features Boosts RXR Agonist Potency” (J Med Chem, 2023).
Calls of active or inactive are those of the source.

The chains behind the UniProt entries cited, without tags or fusion partners. Where a name states a change or a piece, a line headed by the entry shows the natural chain unless it says otherwise.
UniProt Q13133, whole entry: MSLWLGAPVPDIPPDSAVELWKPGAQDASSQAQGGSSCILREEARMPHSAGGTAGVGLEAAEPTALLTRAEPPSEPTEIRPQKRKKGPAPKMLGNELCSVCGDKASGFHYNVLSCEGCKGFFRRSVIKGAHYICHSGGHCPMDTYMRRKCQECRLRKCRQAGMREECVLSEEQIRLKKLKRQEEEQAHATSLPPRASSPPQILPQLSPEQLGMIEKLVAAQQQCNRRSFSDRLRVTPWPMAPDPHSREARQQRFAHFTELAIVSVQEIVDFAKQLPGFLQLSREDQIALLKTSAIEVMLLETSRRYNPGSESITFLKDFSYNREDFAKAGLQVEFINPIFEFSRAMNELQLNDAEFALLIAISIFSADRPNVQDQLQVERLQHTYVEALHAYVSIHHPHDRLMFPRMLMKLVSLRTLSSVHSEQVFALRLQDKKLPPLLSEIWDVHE
UniProt P22736, whole entry: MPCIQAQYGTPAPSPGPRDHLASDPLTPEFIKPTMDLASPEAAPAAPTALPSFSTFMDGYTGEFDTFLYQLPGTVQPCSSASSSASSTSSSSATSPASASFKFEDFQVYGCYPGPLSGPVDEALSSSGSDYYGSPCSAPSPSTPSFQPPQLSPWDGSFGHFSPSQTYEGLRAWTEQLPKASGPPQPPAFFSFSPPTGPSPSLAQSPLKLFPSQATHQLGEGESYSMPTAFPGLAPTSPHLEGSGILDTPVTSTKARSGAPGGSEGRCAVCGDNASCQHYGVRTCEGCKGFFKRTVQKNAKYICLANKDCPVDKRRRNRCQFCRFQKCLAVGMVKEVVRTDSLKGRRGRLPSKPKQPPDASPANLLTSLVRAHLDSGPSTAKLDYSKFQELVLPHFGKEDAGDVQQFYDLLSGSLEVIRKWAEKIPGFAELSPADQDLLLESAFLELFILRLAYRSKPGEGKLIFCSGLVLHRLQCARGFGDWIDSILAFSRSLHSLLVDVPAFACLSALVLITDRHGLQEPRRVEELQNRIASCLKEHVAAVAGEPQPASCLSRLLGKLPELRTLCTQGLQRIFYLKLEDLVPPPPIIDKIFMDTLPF
UniProt Q9Y466: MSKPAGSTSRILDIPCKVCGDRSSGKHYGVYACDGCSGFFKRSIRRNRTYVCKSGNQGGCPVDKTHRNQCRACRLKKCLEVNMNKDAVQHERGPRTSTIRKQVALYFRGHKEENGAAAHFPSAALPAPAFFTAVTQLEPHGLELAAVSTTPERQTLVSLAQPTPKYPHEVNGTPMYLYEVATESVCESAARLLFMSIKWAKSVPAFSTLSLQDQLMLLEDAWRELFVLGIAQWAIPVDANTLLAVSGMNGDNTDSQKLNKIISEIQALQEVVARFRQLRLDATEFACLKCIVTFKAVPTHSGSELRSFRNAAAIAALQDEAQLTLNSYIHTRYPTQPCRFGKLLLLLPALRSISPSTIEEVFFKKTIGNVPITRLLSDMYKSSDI
UniProt O00482, whole entry: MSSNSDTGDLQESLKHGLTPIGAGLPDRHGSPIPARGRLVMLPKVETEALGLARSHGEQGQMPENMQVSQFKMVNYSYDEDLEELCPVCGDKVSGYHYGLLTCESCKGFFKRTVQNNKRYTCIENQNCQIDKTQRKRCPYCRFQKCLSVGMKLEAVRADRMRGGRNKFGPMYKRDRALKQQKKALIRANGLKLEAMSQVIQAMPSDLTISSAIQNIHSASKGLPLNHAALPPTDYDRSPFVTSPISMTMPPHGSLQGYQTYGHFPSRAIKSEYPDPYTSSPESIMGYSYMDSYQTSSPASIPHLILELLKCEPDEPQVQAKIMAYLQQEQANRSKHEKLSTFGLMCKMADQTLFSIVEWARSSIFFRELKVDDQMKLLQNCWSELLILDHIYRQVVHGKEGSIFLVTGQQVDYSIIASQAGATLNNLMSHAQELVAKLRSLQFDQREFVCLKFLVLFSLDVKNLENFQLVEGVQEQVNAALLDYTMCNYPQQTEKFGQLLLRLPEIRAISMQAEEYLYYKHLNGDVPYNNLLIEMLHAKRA
UniProt P10826, whole entry: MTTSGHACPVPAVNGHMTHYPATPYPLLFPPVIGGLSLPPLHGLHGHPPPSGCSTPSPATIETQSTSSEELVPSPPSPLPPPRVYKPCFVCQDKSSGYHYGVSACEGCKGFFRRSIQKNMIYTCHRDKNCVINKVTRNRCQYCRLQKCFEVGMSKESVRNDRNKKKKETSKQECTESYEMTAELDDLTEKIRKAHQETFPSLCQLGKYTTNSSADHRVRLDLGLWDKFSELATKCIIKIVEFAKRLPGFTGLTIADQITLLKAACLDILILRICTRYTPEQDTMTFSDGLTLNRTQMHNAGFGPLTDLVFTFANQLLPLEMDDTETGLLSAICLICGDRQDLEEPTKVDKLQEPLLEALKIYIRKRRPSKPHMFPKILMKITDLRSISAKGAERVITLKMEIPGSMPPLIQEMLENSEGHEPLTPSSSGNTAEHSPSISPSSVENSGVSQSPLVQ
UniProt P55055, whole entry: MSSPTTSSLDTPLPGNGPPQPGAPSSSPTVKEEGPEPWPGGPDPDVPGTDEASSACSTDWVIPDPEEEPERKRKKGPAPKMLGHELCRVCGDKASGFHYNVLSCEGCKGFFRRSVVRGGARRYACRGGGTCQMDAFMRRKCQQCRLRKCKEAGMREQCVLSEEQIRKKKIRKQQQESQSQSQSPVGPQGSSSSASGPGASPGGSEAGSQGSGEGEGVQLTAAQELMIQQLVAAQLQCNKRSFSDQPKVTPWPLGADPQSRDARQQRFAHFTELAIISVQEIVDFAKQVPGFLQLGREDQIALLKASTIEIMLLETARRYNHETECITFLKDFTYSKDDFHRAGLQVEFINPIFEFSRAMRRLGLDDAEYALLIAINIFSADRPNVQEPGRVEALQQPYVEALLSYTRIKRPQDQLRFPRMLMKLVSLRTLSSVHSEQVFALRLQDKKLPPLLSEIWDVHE
UniProt Q13285, whole entry: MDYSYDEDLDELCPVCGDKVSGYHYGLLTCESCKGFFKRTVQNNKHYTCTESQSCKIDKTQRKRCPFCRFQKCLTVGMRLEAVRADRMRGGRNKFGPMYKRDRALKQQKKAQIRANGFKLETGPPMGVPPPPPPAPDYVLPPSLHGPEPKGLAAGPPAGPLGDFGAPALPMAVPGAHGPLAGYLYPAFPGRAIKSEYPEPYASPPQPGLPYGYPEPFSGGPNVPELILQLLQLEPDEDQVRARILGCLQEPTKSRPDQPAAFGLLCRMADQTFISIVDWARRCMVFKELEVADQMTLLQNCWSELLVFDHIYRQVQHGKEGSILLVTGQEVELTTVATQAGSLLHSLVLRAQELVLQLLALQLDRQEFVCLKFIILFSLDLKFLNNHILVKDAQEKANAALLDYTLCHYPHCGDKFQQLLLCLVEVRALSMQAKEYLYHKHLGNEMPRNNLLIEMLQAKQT

Columns and labels:
[1] = molecular target: Oxysterols receptor LXR-alpha (Homo sapiens) (UniProt Q13133); assay: Agonist activity at NR1H3 (unknown origin) at 1 uM
[2] = molecular target: Nuclear receptor subfamily 4immunitygroup A member 1 (Homo sapiens) (UniProt P22736); assay: Agonist activity at NR4A1 (unknown origin) at 1 uM
[3] = molecular target: T1, Hepatocyte nuclear factor 4-alpha (Homo sapiens) (UniProt P41235); assay: Agonist activity at NR2A1 (unknown origin) at 1 uM
T1 sequence (whole entry): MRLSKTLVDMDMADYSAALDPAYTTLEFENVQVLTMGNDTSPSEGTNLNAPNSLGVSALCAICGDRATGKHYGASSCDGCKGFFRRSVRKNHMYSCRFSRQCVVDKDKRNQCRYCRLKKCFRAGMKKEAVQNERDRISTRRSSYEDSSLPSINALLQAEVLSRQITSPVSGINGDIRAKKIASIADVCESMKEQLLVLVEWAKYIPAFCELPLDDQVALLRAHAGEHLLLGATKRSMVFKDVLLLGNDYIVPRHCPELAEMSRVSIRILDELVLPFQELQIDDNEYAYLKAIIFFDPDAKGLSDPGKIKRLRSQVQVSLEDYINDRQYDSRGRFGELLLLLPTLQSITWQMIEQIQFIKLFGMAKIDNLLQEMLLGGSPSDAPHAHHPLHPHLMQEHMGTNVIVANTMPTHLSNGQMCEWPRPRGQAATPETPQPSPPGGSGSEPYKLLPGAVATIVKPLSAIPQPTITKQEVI

[4] = molecular target: Nuclear receptor subfamily 2 group E member 1 (Homo sapiens) (UniProt Q9Y466); assay: Agonist activity at NR2E1 (unknown origin) at 1 uM
[5] = molecular target: Nuclear receptor subfamily 5 group A member 2 (Homo sapiens) (UniProt O00482); assay: Agonist activity at NR5A2 (unknown origin) at 1 uM
[6] = molecular target: T2, Thyroid hormone receptor alpha (Homo sapiens) (UniProt P10827); assay: Inverse agonist activity at NR1A1 (unknown origin) at 1 uM
T2 sequence (whole entry): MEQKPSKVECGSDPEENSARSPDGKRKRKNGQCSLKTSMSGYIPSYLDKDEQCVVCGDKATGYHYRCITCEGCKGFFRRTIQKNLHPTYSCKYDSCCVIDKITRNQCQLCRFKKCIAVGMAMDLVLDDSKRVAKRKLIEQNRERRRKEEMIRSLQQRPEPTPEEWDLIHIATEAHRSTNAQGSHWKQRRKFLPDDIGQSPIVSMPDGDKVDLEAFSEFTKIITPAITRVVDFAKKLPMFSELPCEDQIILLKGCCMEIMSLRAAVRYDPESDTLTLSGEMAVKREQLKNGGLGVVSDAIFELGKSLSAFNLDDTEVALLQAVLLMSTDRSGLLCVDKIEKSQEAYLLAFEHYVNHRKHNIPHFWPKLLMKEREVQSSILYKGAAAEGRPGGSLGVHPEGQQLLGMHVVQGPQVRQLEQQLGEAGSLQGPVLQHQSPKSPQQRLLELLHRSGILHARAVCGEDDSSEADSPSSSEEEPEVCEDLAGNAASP

[7] = molecular target: Retinoic acid receptor beta (Homo sapiens) (UniProt P10826); assay: Inverse agonist activity at NR1B2 (unknown origin) at 1 uM
[8] = molecular target: Oxysterols receptor LXR-beta (Homo sapiens) (UniProt P55055); assay: Inverse agonist activity at NR1H2 (unknown origin) at 1 uM
[9] = molecular target: T3, Nuclear receptor subfamily 1 group D member 1 (Homo sapiens) (UniProt P20393); assay: Inverse agonist activity at NR1D1 (unknown origin) at 1 uM
T3 sequence (whole entry): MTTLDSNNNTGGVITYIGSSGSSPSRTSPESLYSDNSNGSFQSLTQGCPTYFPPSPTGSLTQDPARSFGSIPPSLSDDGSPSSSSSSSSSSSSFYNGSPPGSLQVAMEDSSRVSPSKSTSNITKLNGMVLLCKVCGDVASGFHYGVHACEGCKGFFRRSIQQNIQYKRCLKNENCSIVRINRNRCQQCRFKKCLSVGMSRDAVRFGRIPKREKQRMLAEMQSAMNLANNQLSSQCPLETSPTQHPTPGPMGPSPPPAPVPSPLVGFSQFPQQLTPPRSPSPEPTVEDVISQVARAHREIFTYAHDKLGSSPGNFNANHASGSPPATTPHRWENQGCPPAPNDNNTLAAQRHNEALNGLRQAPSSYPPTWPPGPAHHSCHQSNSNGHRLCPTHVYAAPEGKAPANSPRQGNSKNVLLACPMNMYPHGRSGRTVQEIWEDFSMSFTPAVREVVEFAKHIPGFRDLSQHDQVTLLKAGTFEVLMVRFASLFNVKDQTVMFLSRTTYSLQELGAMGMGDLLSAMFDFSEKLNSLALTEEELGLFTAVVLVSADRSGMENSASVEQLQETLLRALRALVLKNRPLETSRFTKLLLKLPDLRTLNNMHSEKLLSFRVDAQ

[10] = molecular target: T4, Peroxisome proliferator-activated receptor alpha (Homo sapiens) (UniProt Q07869); assay: Antagonist activity at NR1C1 (unknown origin) at 1 uM
T4 sequence (whole entry): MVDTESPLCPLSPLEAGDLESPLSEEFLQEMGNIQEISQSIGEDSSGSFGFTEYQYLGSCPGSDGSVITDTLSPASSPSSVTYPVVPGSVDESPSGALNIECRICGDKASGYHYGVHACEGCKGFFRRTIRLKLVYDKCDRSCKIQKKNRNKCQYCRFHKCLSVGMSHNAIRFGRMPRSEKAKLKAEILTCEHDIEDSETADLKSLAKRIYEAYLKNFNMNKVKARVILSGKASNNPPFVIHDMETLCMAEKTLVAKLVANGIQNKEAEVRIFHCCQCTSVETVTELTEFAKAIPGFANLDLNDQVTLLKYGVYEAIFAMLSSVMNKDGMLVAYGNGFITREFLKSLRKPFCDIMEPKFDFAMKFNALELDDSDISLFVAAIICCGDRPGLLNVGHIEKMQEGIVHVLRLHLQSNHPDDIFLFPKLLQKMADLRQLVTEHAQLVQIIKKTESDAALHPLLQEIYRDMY

[11] = molecular target: Oxysterols receptor LXR-beta (Homo sapiens) (UniProt P55055); assay: Antagonist activity at NR1H2 (unknown origin) at 1 uM
[12] = molecular target: Steroidogenic factor 1 (Homo sapiens) (UniProt Q13285); assay: Antagonist activity at NR5A1 (unknown origin) at 1 uM

Measured: Activity

O=C(O)[C@@H]1C[C@H]1c1nc(-c2ccccc2)c(-c2cc(C(F)(F)F)cc(C(F)(F)F)c2)o1 (racemic)
inactive: all assays above
